Sequences of proteins named here, by UniProt entry; tags and fusion partners are left off. A change or cut given only in a name is not applied to a line headed by its entry.
UniProt Q05941, whole entry: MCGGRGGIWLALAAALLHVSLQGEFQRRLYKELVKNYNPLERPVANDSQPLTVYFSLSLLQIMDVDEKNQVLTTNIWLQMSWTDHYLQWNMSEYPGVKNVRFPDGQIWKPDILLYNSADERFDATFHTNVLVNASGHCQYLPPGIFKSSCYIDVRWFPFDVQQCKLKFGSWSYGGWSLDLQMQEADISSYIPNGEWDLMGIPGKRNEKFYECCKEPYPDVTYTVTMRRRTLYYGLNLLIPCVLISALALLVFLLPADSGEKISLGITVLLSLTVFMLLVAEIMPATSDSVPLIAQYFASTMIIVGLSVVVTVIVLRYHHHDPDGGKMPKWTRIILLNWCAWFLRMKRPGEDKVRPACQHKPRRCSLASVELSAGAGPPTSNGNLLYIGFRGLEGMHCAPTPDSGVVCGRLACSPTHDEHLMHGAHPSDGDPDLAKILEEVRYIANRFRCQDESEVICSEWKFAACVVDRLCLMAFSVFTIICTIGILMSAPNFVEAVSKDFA
UniProt P04757, whole entry: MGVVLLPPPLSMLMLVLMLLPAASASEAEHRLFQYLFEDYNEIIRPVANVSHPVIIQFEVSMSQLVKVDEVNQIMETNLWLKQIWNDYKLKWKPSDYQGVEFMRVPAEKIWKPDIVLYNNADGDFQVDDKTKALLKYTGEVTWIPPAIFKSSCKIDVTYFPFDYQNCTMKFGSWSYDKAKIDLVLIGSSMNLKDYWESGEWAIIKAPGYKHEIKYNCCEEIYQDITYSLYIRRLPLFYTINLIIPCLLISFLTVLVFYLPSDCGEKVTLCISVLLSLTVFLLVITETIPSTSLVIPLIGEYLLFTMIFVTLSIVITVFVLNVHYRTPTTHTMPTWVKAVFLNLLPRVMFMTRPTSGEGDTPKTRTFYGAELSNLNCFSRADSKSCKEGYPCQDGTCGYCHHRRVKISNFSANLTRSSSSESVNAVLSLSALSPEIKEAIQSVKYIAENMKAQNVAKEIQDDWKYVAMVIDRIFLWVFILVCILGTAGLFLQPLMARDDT
UniProt P12392, whole entry: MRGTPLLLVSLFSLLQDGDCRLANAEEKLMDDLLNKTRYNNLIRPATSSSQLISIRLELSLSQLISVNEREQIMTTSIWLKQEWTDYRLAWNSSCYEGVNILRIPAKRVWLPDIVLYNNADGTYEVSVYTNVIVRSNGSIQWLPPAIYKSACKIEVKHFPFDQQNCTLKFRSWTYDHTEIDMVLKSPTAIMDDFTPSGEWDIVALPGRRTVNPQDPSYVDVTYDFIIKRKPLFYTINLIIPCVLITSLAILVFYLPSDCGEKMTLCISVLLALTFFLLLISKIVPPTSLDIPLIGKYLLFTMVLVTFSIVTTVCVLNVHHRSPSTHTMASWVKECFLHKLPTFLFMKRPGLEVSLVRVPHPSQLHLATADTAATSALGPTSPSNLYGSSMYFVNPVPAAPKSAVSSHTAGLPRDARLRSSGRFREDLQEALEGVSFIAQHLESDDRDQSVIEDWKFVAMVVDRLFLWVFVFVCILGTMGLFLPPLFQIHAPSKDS
UniProt P12389: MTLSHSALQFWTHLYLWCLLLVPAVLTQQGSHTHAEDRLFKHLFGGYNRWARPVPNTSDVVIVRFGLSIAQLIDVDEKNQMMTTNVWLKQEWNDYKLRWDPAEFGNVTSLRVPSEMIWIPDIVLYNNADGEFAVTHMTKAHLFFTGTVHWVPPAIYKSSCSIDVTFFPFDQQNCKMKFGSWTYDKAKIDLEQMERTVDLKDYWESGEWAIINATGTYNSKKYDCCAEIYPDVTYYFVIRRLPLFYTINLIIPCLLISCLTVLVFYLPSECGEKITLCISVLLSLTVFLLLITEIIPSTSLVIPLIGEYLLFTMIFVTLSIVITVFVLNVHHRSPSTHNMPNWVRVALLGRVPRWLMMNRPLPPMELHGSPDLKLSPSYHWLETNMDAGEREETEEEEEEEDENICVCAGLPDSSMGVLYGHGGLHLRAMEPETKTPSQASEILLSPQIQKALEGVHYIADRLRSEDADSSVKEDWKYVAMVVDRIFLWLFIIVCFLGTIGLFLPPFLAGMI
UniProt P17787, whole entry: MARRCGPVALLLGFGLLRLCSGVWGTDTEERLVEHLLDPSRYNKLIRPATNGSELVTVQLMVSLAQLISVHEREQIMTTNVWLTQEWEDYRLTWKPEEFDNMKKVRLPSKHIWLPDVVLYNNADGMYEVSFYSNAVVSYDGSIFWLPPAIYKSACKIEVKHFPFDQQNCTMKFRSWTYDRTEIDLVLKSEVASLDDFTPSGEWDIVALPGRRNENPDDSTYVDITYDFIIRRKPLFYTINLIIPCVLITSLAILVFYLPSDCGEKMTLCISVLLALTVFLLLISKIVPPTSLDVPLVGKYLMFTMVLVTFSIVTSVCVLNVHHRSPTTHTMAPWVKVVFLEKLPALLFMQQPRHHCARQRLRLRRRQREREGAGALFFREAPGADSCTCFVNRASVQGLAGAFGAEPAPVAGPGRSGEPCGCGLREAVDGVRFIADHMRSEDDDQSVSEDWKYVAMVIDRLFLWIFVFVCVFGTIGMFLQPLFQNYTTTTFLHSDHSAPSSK
UniProt P43681: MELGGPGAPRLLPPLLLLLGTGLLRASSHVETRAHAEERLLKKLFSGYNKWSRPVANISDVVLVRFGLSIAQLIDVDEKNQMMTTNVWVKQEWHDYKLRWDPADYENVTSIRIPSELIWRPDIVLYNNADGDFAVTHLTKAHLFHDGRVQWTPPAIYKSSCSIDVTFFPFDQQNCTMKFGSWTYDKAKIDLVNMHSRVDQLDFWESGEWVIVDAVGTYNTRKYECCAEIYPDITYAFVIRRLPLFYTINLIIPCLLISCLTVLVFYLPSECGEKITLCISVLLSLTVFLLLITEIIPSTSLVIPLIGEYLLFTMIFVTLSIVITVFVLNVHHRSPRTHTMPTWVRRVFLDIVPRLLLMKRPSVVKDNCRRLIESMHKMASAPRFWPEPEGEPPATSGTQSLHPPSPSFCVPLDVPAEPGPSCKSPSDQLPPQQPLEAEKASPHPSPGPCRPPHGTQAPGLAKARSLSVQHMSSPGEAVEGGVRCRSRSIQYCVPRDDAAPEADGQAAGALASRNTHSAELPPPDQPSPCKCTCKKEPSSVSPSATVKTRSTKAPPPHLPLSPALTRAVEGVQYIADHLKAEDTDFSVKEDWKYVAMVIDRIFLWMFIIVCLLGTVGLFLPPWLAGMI

In ChEMBL document CHEMBL3877245 (Eur J Med Chem, 2016):

Experiments:
Rattus norvegicus = organism: Rattus norvegicus; experiment: Displacement of [3H]epibatidine from rat forebrain alpha7* nAChR at 10 uM by liquid scintillation counting
[1] = target: Neuronal acetylcholine receptor subunit alpha-7 (Rattus norvegicus) (UniProt Q05941); experiment: Displacement of [3H]epibatidine from rat alpha7 nAChR at 10 uM by liquid scintillation counting
[2] = target: alpha3beta4 nAChR (neuronal acetylcholine receptor alpha3/beta4) (Rattus norvegicus, UniProt P04757+P12392); experiment: Displacement of [3H]epibatidine from rat alpha3beta4 nAChR at 10 uM by liquid scintillation counting; conditions: probe [3H]epibatidine
[3] = target: Neuronal acetylcholine receptor; alpha2/beta4 (Rattus norvegicus) (UniProt P12389+P12392); conditions: 10 uM
[4] = target: T1, Neuronal acetylcholine receptor; alpha4/beta2 (Homo sapiens, UniProt P17787+P43681); experiment: Antagonist activity at human alpha4beta2 expressed in human SH-EP1 cells assessed as reduction in carbamylcholine induced 86Rb+ efflux preincubated for 10 mins followed by carbamylcholine addition measured after 5 mins by Cherenkov counting; assay type: cell-based
How it was run: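 Same 86Rb+-loaded cells and pH 7.4 efflux buffer. Cells lysed in 0.1 M NaOH/0.1% SDS and Cerenkov counted. Specific efflux = total minus nonspecific (mecamylamine-blocked); inactivation IC50 derived from inhibition of carbamylcholine response.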

[5] = target: T1, Neuronal acetylcholine receptor; alpha4/beta2; experiment: Agonist activity at human alpha4beta2 nAChR expressed in human SH-EP1 cells after 9.5 mins by 86Rb+ efflux assay; assay type: cell-based
How it was run: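 86Rb+ efflux: cells loaded with ~350,000 cpm 86Rb+ at least 4 h (typically overnight), rinsed with efflux buffer pH 7.4 (130 mM NaCl, 5.4 mM KCl, 2 mM CaCl2, 50 mM HEPES, 5 mM glucose). Test drug alone applied 9.5 min. Efflux normalized, after nonspecific subtraction, to specific efflux of fully efficacious carbamylcholine control; nonspecific defined with carbamylcholine plus mecamylamine; EC50 derived.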

| SMILES | inhibition (Rattus norvegicus) [%] | inhibition [1] [%] | inhibition at 10 µM [2] [%] | inhibition [3] [%] | IC50 [4] [µM] | pIC50 ([4]; sh-ep1) | EC50 [5] [µM] | pEC50 ([5]; sh-ep1) |
| --- | --- | --- | --- | --- | --- | --- | --- | --- |
| COCC[C@H]1C[C@@H]1c1cncc(N2CCCN(C)CC2)c1 | < 50 | < 50 | < 50 | < 50 |  |  |  |  |
| COCC[C@@H]1C[C@H]1c1cncc(N2C[C@@H]3C[C@H]2CN3)c1 | < 50 | < 50 | < 50 | < 50 |  |  |  |  |
| COCC[C@H]1C[C@@H]1c1cncc(N2C[C@@H]3C[C@H]2CN3)c1 | < 50 | < 50 |  |  |  |  |  |  |
| COCC[C@@H]1C[C@H]1c1cncc(N2CCCNCC2)c1 | < 50 | < 50 |  |  |  |  |  |  |
| COCC[C@H]1C[C@@H]1c1cncc(N2CCCNCC2)c1 | < 50 | < 50 |  |  |  |  |  |  |
| OCCc1cc(-c2cncc(N3CCCNCC3)c2)on1 | < 50 | < 50 |  |  |  |  |  |  |
| CN1CCCN(c2cncc(-c3cc(CCO)no3)c2)CC1 | < 50 | < 50 |  |  | > 1 | < 6 | > 1 | < 6 |
